Results from patent publication US10314775B2, “Methods of increasing hair growth and improving hair appearance” (MyMD Pharmaceuticals, Inc., priority 2016, dated 2019).

The chains behind the UniProt entries cited, without tags or fusion partners.
UniProt P21397, whole entry, species assumed: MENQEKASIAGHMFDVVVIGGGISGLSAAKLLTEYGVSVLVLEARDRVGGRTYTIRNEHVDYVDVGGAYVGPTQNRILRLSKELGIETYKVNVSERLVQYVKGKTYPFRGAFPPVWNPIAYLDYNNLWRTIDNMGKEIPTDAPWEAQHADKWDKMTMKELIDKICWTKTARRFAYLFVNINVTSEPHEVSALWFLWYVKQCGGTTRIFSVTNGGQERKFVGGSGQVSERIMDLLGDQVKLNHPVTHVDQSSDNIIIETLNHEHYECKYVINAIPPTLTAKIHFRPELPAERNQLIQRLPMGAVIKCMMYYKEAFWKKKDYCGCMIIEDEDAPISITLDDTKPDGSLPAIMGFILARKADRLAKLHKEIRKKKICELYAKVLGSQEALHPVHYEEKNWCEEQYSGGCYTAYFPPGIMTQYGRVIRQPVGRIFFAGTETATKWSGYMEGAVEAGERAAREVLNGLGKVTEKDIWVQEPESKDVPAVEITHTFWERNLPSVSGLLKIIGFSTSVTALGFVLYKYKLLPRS

Biological target: T1, MAO-A (Homo sapiens, UniProt P21397)
T1 construct: purchased
Test: MAO-Glo luminescent assay, MAO-A inhibition
Format: biochemical
Details: FIG. 1; compared with myosmine, anatabine, anabasine, nornicotine; clorgyline positive control
Text: This example describes experiments for determining monoamine oxidase (MAO) inhibition for isomyosmine and other alkaloids. MAOs are enzymes located on the outer membrane of mitochondria and are involved in the catabolism of monoamine neurotransmitters. There are two well-characterized isoenzymes: MAO-A, which predominantly catabolizes serotonin and norepinephrine, and MAO-B, which preferentially catabolizes benzylamine and phenylethylamine. Dopamine and tyramine are metabolized by both isoforms.
To detect the activity of MAO, a luminescent method (MAO-Glo Assay kit, from Promega, Cat # V1401) was used. In this method, a MAO substrate (a derivative of beetle luciferin provided in the kit) is mixed with the compound to be tested (in this case, myosmine and control compounds). Then, the MAO enzymes (either A or B, purchased separately) are added to the mixture and incubated with the reaction for 1 hour at room temperature. The MAO enzymes, if not inhibited by the test compound, will convert the substrate into methyl ester luciferin. Finally, a luciferin detection reagent (provided by the kit) is added (20 minutes at room temperature) to stop the MAO reaction and convert methyl ester luciferin into D-luciferin. […] The luminescent signal is measured and recorded using a luminometer.
Anatabine was obtained from Emerson Resources, Norristown, Pa.

C#CCN(C)CCCOc1ccc(Cl)cc1Cl [clorgyline, reference compound]
inhibiting the enzymatic activity of MAO-A, comparison of curves: greatly shifted leftward
